{"sequences": {"note": "By UniProt entry, the sequences of proteins in these tests, tags left out. Residues count along the entry.", "UniProt P06756, 891-1048 partner limits assumed": "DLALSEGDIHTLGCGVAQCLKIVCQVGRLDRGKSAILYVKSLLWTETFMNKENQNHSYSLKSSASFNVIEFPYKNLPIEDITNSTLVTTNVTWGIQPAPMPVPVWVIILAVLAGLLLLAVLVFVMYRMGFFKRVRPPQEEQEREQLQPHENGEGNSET", "UniProt P06756, 31-889 limits assumed": "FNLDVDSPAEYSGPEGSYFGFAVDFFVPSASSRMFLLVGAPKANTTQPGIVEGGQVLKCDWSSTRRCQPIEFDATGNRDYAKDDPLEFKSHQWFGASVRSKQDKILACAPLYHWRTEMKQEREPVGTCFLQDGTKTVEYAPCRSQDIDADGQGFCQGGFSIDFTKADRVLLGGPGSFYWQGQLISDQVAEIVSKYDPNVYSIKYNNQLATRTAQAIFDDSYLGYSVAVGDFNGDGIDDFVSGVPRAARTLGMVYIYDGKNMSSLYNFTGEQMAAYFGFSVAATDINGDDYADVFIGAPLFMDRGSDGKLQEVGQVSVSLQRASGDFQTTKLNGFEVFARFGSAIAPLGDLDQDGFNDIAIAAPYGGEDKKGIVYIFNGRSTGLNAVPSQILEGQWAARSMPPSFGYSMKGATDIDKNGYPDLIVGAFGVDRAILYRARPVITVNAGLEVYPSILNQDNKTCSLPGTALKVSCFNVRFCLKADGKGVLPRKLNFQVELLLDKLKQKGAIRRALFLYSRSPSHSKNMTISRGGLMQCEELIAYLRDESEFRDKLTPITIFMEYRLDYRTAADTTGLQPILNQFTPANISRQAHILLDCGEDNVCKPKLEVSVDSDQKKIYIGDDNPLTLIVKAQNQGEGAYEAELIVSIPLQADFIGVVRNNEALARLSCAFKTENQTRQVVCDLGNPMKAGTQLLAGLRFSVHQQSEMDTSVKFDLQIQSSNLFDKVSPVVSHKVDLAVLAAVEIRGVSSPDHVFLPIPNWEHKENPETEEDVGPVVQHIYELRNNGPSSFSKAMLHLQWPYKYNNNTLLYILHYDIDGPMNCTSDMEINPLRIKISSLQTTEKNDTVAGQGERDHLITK"}, "source": "patent US5648330A", "about": "“Method and composition for treating vascular graft occlusion” (La Jolla Cancer Research Foundation, priority 1995, dated 1997)", "key": {"[1]": {"target": "T1, Vitronectin receptor (Vn-R) (Homo sapiens, UniProt P05106+P06756)", "T1 construct": "from (100 mM) octyl glucoside (OG) extracted human placenta; from tissue; host or cells: human placenta", "assay": "Liposome attachment assay for vitronectin receptor", "settings": "purified receptor, read-out: VnR Binding (IC50)", "protocol": "Receptors were purified according to the procedures of Pytela et al. (Methods Enzymol. 144: 475 (1987)), incorporated herein by reference. […] After extraction, the suspension was filtered over a Sepharose 6B column and then applied to a GRGDSPK column. Except where stated, all procedures were carried out at 4° C. The peptide column was washed with three volumes of Tris-buffered saline (TBS) containing 1 mM Ca^2+ and 25 mM OG and then with TBS containing 1 mM Ca^2+ and 25 mM octyl thioglucoside (OTG) at room temperature. […] Finally, Ca^2+ and Mg^+2 were added to eluted fractions to achieve final concentrations of 1 mM for both ions.\nThis assay was performed with minor modifications, according to the method of Pytela et al., Methods Enzymol. 144: 475 (1987), incorporated herein by reference. […] An aliquot of the dialyzed sample was counted to assess radioactive content; the receptor-liposome mixture was then diluted to obtain a set radioactivity per unit volume. […]\n(§1) In parallel studies with the platelet aggregation experiments (described in Example V), the apparent affinities of peptides for GP IIb/IIIa, fibronectin and vitronectin receptors were determined. […]\n(§2) IC50 s for FnR were determined by ELISA (Example III). Those for VnR and GP IIb/IIIa were determined by liposome attachment assay (Example IV). […]"}, "GP IIb/IIIa": {"target": "GP IIb/IIIa (Homo sapiens, UniProt P05106+P08514)", "assay": "Liposome attachment assay for GP IIb/IIIa", "settings": "read-out: IIb/IIIa Binding (IC50)", "protocol": "This assay was performed with minor modifications, according to the method of Pytela et al., Methods Enzymol. 144: 475 (1987), incorporated herein by reference. Briefly, 1:4 mixture of labelled and unlabelled phosphatidylcholine (PC) liposomes was dissolved under nitrogen and diluted with an equal volume of purified receptor (purified as described in Example II) to achieve a fixed predetermined receptor-liposome concentration ratio. This mixture was then dialyzed overnight at 4° C. in phosphate buffered saline (PBS) containing 1 mM Ca^2+. An aliquot of the dialyzed sample was counted to assess radioactive content; the receptor-liposome mixture was then diluted to obtain a set radioactivity per unit volume.\nMicrotiter plates were coated with 10 μg of vitronectin. Non-specific sites were blocked for 2 hours at 37° C. in PBS containing 5 mg/ml BSA and 1 mM each of CaCl2 and MgCl2. The plates were then rinsed twice with PBS containing 1 mM Ca^+2 and Mg^+2, and 100 μl of the liposome-receptor mixture was added to each well. […]\nas §1, §2"}, "[2]": {"assay": "Template bleeding, clotting times and hematology in baboon shunt study", "assay_type": "in vivo", "protocol": "Twenty-four hours before the ex vivo shunt was established, platelets were isolated from 500 ml of blood from the test animal and labelled with ca. 500 microcuries of indium-111 oxine (Medi+Physics, Emeryville, Calif.), which irreversibly and specifically binds to platelets with an efficiency of 50%. Immediately after labelling, these platelets were then injected back into the animal and allowed to circulate for 24 hours. Immediately before the start of the study, fibrinogen that had been isolated from the animal and labelled with iodine-131 (DuPont Nuclear, Boston, Mass.) was also injected back into the animal. Also at this time, baseline determinations of the clotting and template bleeding times were made, and blood samples were drawn for hematology studies.\nAt one- and two-hour time points, template bleeding times were measured, and blood samples were drawn to assess the hematology aggregation studies. Platelet aggregation studies were performed as described in Example V using ADP as the stimulus.\nUpon the completion of each study, each shunt was flushed with lactated Ringer's solution, and each graft was then removed. Sections of these grafts were subjected to liquid scintillation counting to determine their content of residual iodine ^131 -fibrinogen and indium^111 -platelets. The catheters in the femoral artery and vein were then removed, and hemostasis was achieved by compression. Finally, post-procedural blood samples were drawn, and determinations of template bleeding and clotting times were also made."}, "[3]": {"settings": "animal 1, immediately after completion of second shunt"}}, "note": "pIC50: −log10 of the molar value."}
{"substance": "PmpGHRGDLRCA", "values": [{"measurement": "pIC50", "setting": "[1]", "value": 6.39}]}
{"substance": "GPenGRGDLPCA", "values": [{"measurement": "pIC50", "setting": "[1]", "value": 5.38}]}
{"substance": "GPenGRGDSPCA", "values": [{"measurement": "pIC50", "setting": "GP IIb/IIIa", "value": 4.70}]}
{"substance": "R(am-Pmp)GHRGD(TyrMe)RCR", "values": [{"measurement": "pIC50", "setting": "GP IIb/IIIa", "value": 6.46}]}
{"substance": "GPenGHRGDLRCA", "values": [{"measurement": "other hematology parameters", "setting": "[2]; animal 1", "value": "unaffected"}, {"measurement": "platelet count reduced", "setting": "[2]; [3]", "value": 14, "unit": "%"}, {"measurement": "white blood cell count reduced", "setting": "[2]; [3]", "value": 37, "unit": "%"}, {"measurement": "template bleeding and clotting times", "setting": "[2]; animal 1, two bolus IV injections of 10 mg/kg", "value": "did not lower"}, {"measurement": "template bleeding time, clotting time, all blood cell counts", "setting": "[2]; animal 2, 10 mg/kg IV bolus + 10 mg/kg/hr infusion", "value": "no effect"}]}
